Data published in patent publication US20180078656A1, “CRYPTOPHYCIN-BASED ANTIBODY-DRUG CONJUGATES WITH NOVEL SELF-IMMOLATIVE LINKERS” (priority 2015, published 2018).

Tests used:
MCF7 cells = experiment: Cell viability assay (CellTiter-Glo), MCF7, 96 h; format: cell-based, human; details: Her2-low MCF7, 96 h incubation; antibodies and ADC
Experimental: (§1) Tumor cell lines (breast carcinoma cell lines SKBR-3 and MCF7 and colon carcinoma cell line HCT116) were obtained from American Type Culture Collection and were grown according to standard protocols. SKBR-3 cells are known to express high Her2 levels and therefore are trastuzumab-sensitive, while MCF7 and HCT116 cells show low Her2 expression and therefore are trastuzumab-resistant. The effects of the cryptophycin-55-glycinate ADC conjugate on tumor cell viability were assessed using the CellTiter-Glo® Luminescent Cell Viability Assay (Promega), according to the manufacturer protocol. […] Cells were plated in black-walled 96-well plates (5000 cells per well for SKBR-3 and MCF7; 2000 cells per well for HCT116) and allowed to adhere overnight at 37° C. in a humidified atmosphere of 5% CO2. […] Five to eight triplicate datapoints were recorded for each experimental condition. At the end of the incubation luminescence was measured using a Perkin Elmer Wallac 1450 MicroBeta TriLux detector. Compound cytotoxicity was evaluated in comparison to cells treated with PBS (antibodies) or 0.1% DMSO (compounds). CC50 values were calculated by fitting viability data with a four-parameter logistic equation using a Kaleidagraph software.

HCT116 cells = experiment: Cell viability assay (CellTiter-Glo), HCT116; format: cell-based; details: Her2-low HCT116, 96 h incubation; antibodies and ADC
Experimental: as §1

SK-BR3 cells = experiment: Cell viability assay (CellTiter-Glo), SK-BR3; format: cell-based; details: chosen experimental conditions (concentration ranges, incubation time)
Experimental: as §1, with “SKBR-3 cells are known to express high Her2 levels and therefore are trastuzumab-sensitive, while MCF7 and HCT116 cells show low Her2 expression and therefore are trastuzumab-resistant.” left out

## Cry-55-Gly-mAb_Peak2: trastuzumab conjugated to Maleimide-PEG-Val-Cit-Pro-Gly-Cryptophycin-55-glycinate, monomeric form
MCF7 cells
  MCF7 CC50 (in words): inactive
HCT116 cells
  HCT116 CC50 (in words): inactive

## Cry-55-Gly-mAb_Peak1: trastuzumab conjugated to Maleimide-PEG-Val-Cit-Pro-Gly-Cryptophycin-55-glycinate, oligomeric form
MCF7 cells
  MCF7 CC50 (in words): inactive
HCT116 cells
  HCT116 CC50 (in words): inactive

## Trastuzumab reduced: S-S reduced trastuzumab control sample left unconjugated
MCF7 cells
  MCF7 CC50 (in words): inactive
HCT116 cells
  HCT116 CC50 (in words): inactive

## Trastuzumab: recombinant humanized monoclonal antibody binding the extracellular domain of HER2
SK-BR3 cells
  effect on SKBR-3 cell viability: about 30%
MCF7 cells
  MCF7 CC50 (in words): inactive
HCT116 cells
  HCT116 CC50 (in words): inactive
